This is a selection; strong and weak results do not stand in their true shares.
The compounds below were run against Bcl-2-like protein 10 (Homo sapiens) (UniProt Q9HD36) (assay: Phenotype converters, Bcl-B/TR3 peptide binding displacement, primary biochemical FP (AID 1240;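 further: 0% = Bcl-B with tracer peptide and DMSO and 100% = tracer peptide lacking Bcl-B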)). Details: GST-Bcl-B / FITC-TR3 peptide fluorescence polarization; stronger effect = higher value; compound at 3.75 mg/L.

Chains of the proteins cited; added tags and fusions are not shown. Lines headed by an entry give the natural chain unless they say otherwise; changes in a name come on top.
UniProt Q9HD36: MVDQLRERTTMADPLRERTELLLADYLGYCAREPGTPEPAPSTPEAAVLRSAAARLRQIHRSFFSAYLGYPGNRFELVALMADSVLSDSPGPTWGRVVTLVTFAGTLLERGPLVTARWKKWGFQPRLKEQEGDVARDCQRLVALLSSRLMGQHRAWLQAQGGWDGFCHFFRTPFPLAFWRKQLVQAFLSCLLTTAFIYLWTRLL

| SMILES | displacement [%] |
| --- | --- |
| CCCCOP(=O)(OCCCC)SC | -9.9 |
| COC(=O)NC(Sc1ccc(Cl)cc1)C(Cl)Cl (stereo not given) | 12.4 |
| O=CNC(Sc1nc2ccccc2o1)C(Cl)(Cl)Cl (stereo not given) | -4.1 |
| CCCCSP(=O)(OCC(C)C)OCC(C)C | 4.4 |
| CCOC(=O)NC(Sc1nc2ccccc2o1)C(Cl)(Cl)Cl (stereo not given) | -18.7 |
| Cc1cc(C)nc(SC(NC(=O)c2ccccc2)C(Cl)(Cl)Cl)n1 (stereo not given) | -12 |
| Cc1ccc(SC(NC(=O)c2ccccc2)C(Cl)Cl)cc1 (stereo not given) | 12.4 |
| O=C(CF)NC(Sc1ccc(Cl)cc1)C(Cl)(Cl)Cl (stereo not given) | 4.4 |
| O=C(NC(SC1=NCCS1)C(Cl)(Cl)Cl)c1ccc(I)cc1 (stereo not given) | 0 |
| COC(=O)c1ccc(OP(=O)(Oc2ccc(Cl)cc2C)SCC(C)C)cc1 (stereo not given) | 6.3 |
